Counter-ions that a name gives are not always drawn.
Key:
[1] = tested on: tankyrase 1/2; test: Cellular inhibition of tankyrase: increase of Axin2 level in DLD1 cells (Luminex); format: cell-based; details: 24 hours, read-out: EC50 tankyrase 1/2 (cell assay)
Method: Measurement of Cellular Inhibition of Tankyrase
Cells of the colon carcinoma cell line DLD1 are plated in 96 well plates with 1.5×10^4 cells per well. Next day, cells are treated with a serial dilution of test compound in seven steps as triplicates with a final DMSO concentration of 0.3%. After 24 hours, cells are lysed in lysis buffer (20 mM Tris/HCl pH 8.0, 150 mM NaCl, 1% NP40, 10% Glycerol) and lysates are cleared by centrifugation through a 96 well filter plate (0.65 μm). […] The amount of isolated Axin2 protein is determined in a Luminex^200 machine (Luminex Corporation) according to the manufacturer's instruction by counting 100 events per well. […] For analysis, the obtained data are normalized against the untreated solvent control and fitted for determination of the EC50 values using the Assay Explorer software (Accelrys).

By UniProt entry, the sequences of proteins in these tests, tags left out. Residues count along the entry.
UniProt Q9H2K2, 873-1166: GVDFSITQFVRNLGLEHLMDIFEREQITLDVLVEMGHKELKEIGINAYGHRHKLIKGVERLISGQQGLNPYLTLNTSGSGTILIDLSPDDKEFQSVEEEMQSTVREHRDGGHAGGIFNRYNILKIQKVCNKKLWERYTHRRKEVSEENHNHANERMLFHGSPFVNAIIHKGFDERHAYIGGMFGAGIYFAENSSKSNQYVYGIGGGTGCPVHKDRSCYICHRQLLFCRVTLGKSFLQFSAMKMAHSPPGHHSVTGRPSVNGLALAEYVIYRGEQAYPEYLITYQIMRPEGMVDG

[2] = molecular target: GST-tagged Tnks-2 (873-1166 aa) (Homo sapiens, UniProt Q9H2K2); test: biochemical
Method: Description of the TNKS1 and TNKS2 ELISA Assay
Then the activity assay with biotinylated NAD is performed in the absence/presence of the compounds. During the enzymatic reaction GST tagged TNKS transfers biotinylated ADP-ribose to itself from biotinylated NAD as co-substrate. For the detection streptavidin-HRP conjugate is added that binds to the biotinylated TNKS and is thereby captured to the plates. The amount of biotinylated resp. autoparsylated TNKS is detected with a luminescence substrate for HRP. The level of the luminescence signal correlates directly with the amount of autoparsylated TNKS and therefore with activity of TNKS.
The activity ELISA is performed in 384 well Glutathione coated microtiter plates (Express capture Glutathione coated plate, Biocat, Heidelberg, Germany). The plates are pre-equilibrated with PBS. […] The plates are washed 3 times with PBS-Tween-20. The wells are blocked by incubation at room temperature for 20 minutes with 50 μl blocking buffer (PBS, 0.05% Tween-20, 0.5% BSA). Afterwards the plates are washed 3 times with PBS-Tween-20. […] The reaction is stopped by 3 times washing with PBS-Tween-20. For the detection 50 μl of 20 ng/μl Streptavidin, HRP conjugate (MoBiTec, Gottingen, Germany) in PBS/0.05% Tween-20/0.01% BSA are added and the plates are incubated for 30 minutes at room temperature. After three times washing with PBS-Tween-20 50 μl of SuperSignal ELISA Femto Maximum sensitivity substrate solution (ThermoFisherScientific (Pierce), Bonn, Germany) are added. Following a 1 minute incubation at room temperature luminescence signals are measured with an Envision multimode reader (Perkin Elmer LAS Germany GmbH) at 700 nm. The full value used is the inhibitor-free reaction. […] The inhibitory values (IC50) are determined using either the program Symyx Assay Explorer® or Condosseo® from GeneData.

[3] = molecular target: GST-tagged Tankyrase-2 (873-1166 aa) (Homo sapiens, UniProt Q9H2K2); test: biochemical
Excerpt: aq (aqueous), h (hour), g (gram), L (liter), mg (milligram), MHz (Megahertz), min. (minute), mm (millimeter), mmol (millimole), mM (millimolar), m.p. (melting point), eq (equivalent), mL (milliliter), L (microliter), ACN (acetonitrile), AcOH (acetic acid), CDCl3 (deuterated chloroform), CD3OD (deuterated methanol), CH3CN (acetonitrile), c-hex (cyclohexane), DCC (dicyclohexyl carbodiimide), DCM (dichloromethane), DIC (diisopropyl carbodiimide), DIEA (diisopropylethyl-amine), DMF (dimethylformamide), DMSO (dimethylsulfoxide), DMSO-d6 (deuterated dimethylsulfoxide), EDC (1-(3-dimethyl-amino-propyl)-3-ethylcarbodiimide), ESI (Electro-spray ionization), EtOAc (ethyl acetate), Et2O (diethyl ether), EtOH (ethanol), HATU (dimethylamino-([1,2,3]triazolo[4,5-b]pyridin-3-yloxy)-methylene]-dimethylammonium hexafluorophosphate), HPLC (High Performance Liquid Chromatography), i-PrOH (2-propanol), K2CO3 (potassium carbonate), LC (Liquid Chromatography), MeOH (methanol), MgSO4 (magnesium sulfate), MS (mass spectrometry), MTBE (Methyl tert-butyl ether), NaHCO3 (sodium bicarbonate), NaBH4 (sodium borohydride), NMM (N-methyl morpholine), NMR (Nuclear Magnetic Resonance), PyBOP (benzotriazole-1-yl-oxy-trispyrrolidino-phosphonium hexafluorophosphate), RT (room temperature), Rt (retention time), SPE (solid phase extraction), TBTU (2-(1-H-benzotriazole-1-yl)-1,1,3,3-tetramethyluromium tetrafluoro borate), TEA (triethylamine), TFA (trifluoroacetic acid), THF (tetrahydrofuran), TLC (Thin Layer Chromatography), UV (Ultraviolet). Description of the In Vitro Assays Abbreviations: GST=Glutathione-S-transferase FRET=Fluorescence resonance energy transfer HTRF®=(homogenous time resolved fluorescence) HEPES=4-(2-hydroxyethyl)-1-piperazine ethanesulfonic acid buffer DTT=Dithiothreitol BSA=bovine serum albumin CHAPS=detergent; CHAPS=3[(3-cholamidopropyl)dimethylammonio]-1-propanesulfonate Streptavidin-XLent® is a high grade streptavidin-XL665 conjugate for which the coupling conditions have been optimized to yield a conjugate with enhanced performances for some assays, particularly those requiring high sensitivity.
The autoparsylation assay is run in two steps: the enzymatic reaction in which GST-tagged Tankyrase-1, resp Tankyrase-2 transferred biotinylated ADP-ribose to itself from biotinylated NAD as co-substrate and the detection reaction where a time resolved FRET between cryptate labelled anti-GST bound to the GST tag of the enzyme and Xlent® labelled-streptavidin bound the biotin-parsylation residue is analysed. The autoparsylation activity was detectable directly via the increase in HTRF signal.
The autoparsylation assay is performed as 384-well HTRF® (Cisbio, Codolet, France) assay format in Greiner low volume nb 384-well microtiter plates and is used for high throughput screen. […] The reaction is stopped by the addition of 1 μl 50 mM EDTA solution. […] The ratio of the emission signals is determined. The full value used is the inhibitor-free reaction. […] The inhibitory values (IC50) are determined using either the program Symyx Assay Explorer® or Condosseo® from GeneData.

| Structure (SMILES) | EC50 [1] | IC50 [2] | IC50 [3] |
| --- | --- | --- | --- |
| CN1CCN(c2ccc(-c3nc4ccc(F)cc4c(=O)[nH]3)cc2)CC1 [Compound A10, 6-fluoro-2-[4-(4-methyl-piperazin-1-yl)-phenyl]-3H-quinazolin-4-one] | 300 to 3000 nM | < 300 nM | 300 to 3000 nM |
| Cc1cccc2c(=O)[nH]c(-c3ccc(C(C)(C)O)cc3)nc12 [Compound A24, 2-[4-(1-hydroxy-1-methyl-ethyl)-phenyl]-8-methyl-3H-quinazolin-4-one] | < 300 nM | < 300 nM | < 300 nM |
| COc1cccc2c(=O)[nH]c(-c3ccc(C(C)(C)O)cc3)nc12 [Compound A2, 2-[4-(1-hydroxy-1-methyl-ethyl)-phenyl]-8-methoxy-3H-quinazolin-4-one] | 300 to 3000 nM | – | – |
| Cc1cc(F)cc2c(=O)[nH]c(-c3ccc(C(C)(C)OCCO)cc3)nc12 [Compound A21, 6-fluoro-2-{4-[1-(2-hydroxy-ethoxy)-1-methyl-ethyl]-phenyl}-8-methyl-3H-quinazolin-4-one] | < 300 nM | < 300 nM | 300 to 3000 nM |
| Cc1cc(F)cc2c(=O)[nH]c(-c3ccc(C(C)(C)O)cc3)nc12 [Compound A25, 6-fluoro-2-[4-(1-hydroxy-1-methyl-ethyl)-phenyl]-8-methyl-3H-quinazolin-4-one] | < 300 nM | < 300 nM | < 300 nM |
| CC(C)(O)c1ccc(-c2nc3ccc(F)c(F)c3c(=O)[nH]2)cc1 [Compound A12, 5,6-difluoro-2-[4-(1-hydroxy-1-methyl-ethyl)phenyl]-3H-quinazolin-4-one] | 300 to 3000 nM | < 300 nM | < 300 nM |
| CC(C)(O)c1ccc(-c2nc3ccc(F)cc3c(=O)[nH]2)nc1 [Compound A13, 6-fluoro-2-[5-(1-hydroxy-1-methyl-ethyl)-2-pyridyl]-3H-quinazolin-4-one] | 3000 to 50000 nM | – | 3000 to 50000 nM |
| CC(C)(O)c1ccc(-c2nc3c(F)ccc(F)c3c(=O)[nH]2)cc1 [Compound A27, 5,8-difluoro-2-[4-(1-hydroxy-1-methyl-ethyl)-phenyl]-3H-quinazolin-4-one] | 300 to 3000 nM | – | 300 to 3000 nM |
| CC(C)(O)c1ccc(-c2nc3ccc(F)cc3c(=O)[nH]2)cc1 [Compound A1, 6-fluoro-2-[4-(1-hydroxy-1-methyl-ethyl)-phenyl]-3H-quinazolin-4-one] | < 300 nM | < 300 nM | 300 to 3000 nM |
| COCCOC(C)(C)c1ccc(-c2nc3ccc(F)cc3c(=O)[nH]2)cc1 [Compound A8, 6-fluoro-2-{4-[1-(2-methoxy-ethoxy)-1-methyl-ethyl]-phenyl}-3H-quinazolin-4-one] | 300 to 3000 nM | < 300 nM | 300 to 3000 nM |
| CC(C)(O)c1ccc(-c2nc3cccc(F)c3c(=O)[nH]2)cc1 [Compound A4, 5-fluoro-2-[4-(1-hydroxy-1-methyl-ethyl)-phenyl]-3H-quinazolin-4-one] | 300 to 3000 nM | < 300 nM | < 300 nM |
| Cc1cc(F)cc2c(=O)[nH]c(-c3ccc(C4CCNCC4)cc3)nc12 [Compound A33, 6-fluoro-8-methyl-2-(4-piperidin-4-yl-phenyl)-3H-quinazolin-4-one hydrochloride] | < 300 nM | < 300 nM | 300 to 3000 nM |
| CC(C)(O)c1ccc(-c2nc3ccc(Cl)cc3c(=O)[nH]2)cc1 [Compound A5, 6-chloro-2-[4-(1-hydroxy-1-methyl-ethyl)-phenyl]-3H-quinazolin-4-one] | 3000 to 50000 nM | < 300 nM | 300 to 3000 nM |
| CC(C)(O)c1ccc(-c2nc3c(F)cccc3c(=O)[nH]2)cc1 [Compound A3, 8-fluoro-2-[4-(1-hydroxy-1-methyl-ethyl)-phenyl]-3H-quinazolin-4-one] | 300 to 3000 nM | < 300 nM | < 300 nM |
| Cc1cc(F)cc2c(=O)[nH]c(-c3ccc(N4CCN(C)CC4)cc3)nc12 [Compound A28, 6-fluoro-8-methyl-2-[4-(4-methyl-piperazin-1-yl)-phenyl]-3H-quinazolin-4-one] | < 300 nM | < 300 nM | 300 to 3000 nM |
| CC(C)(C)c1ccc(-c2nc3ccc(F)cc3c(=O)[nH]2)cc1 [Compound A9, 2-(4-tert-butyl-phenyl)-6-fluoro-3H-quinazolin-4-one] | 300 to 3000 nM | < 300 nM | 300 to 3000 nM |
| CC(C)(OCCO)c1ccc(-c2nc3ccc(F)cc3c(=O)[nH]2)cc1 [Compound A7, 6-fluoro-2-{4-[1-(2-hydroxy-ethoxy)-1-methyl-ethyl]-phenyl}-3H-quinazolin-4-one] | 300 to 3000 nM | < 300 nM | 300 to 3000 nM |
| CC(C)(O)c1ccc(-c2nc3cccc(Cl)c3c(=O)[nH]2)cc1 [Compound A23, 5-chloro-2-[4-(1-hydroxy-1-methyl-ethyl)-phenyl]-3H-quinazolin-4-one] | 300 to 3000 nM | < 300 nM | 300 to 3000 nM |
| O=c1[nH]c(-c2ccc(C3CCNCC3)cc2)nc2c(F)cc(F)cc12 [Compound A34, 6,8-difluoro-2-(4-piperidin-4-yl-phenyl)-3H-quinazolin-4-one hydrochloride] | 300 to 3000 nM | – | 300 to 3000 nM |
| CC(C)(O)c1ccc(-c2nc3c(Cl)cccc3c(=O)[nH]2)cc1 [Compound A6, 8-chloro-2-[4-(1-hydroxy-1-methyl-ethyl)-phenyl]-3H-quinazolin-4-one] | – | < 300 nM | < 300 nM |

— patent US9388142B2, “Quinazolinone derivatives as PARP inhibitors” (MERCK PATENT GMBH, priority 2012, dated 2016)
